{"source": "paper PMC6364417", "about": "“Kinase inhibitor library screening identifies synergistic drug combinations effective in sensitive and resistant melanoma cells” (Journal of Experimental & Clinical Cancer Research : CR, 2019)", "key": {"A375 cells (parental)": {"tested_on": "A375 cells (parental)", "assay": "Kinase inhibitor library screening, PrestoBlue cell viability, 1 or 10 μM, 72 h", "details": "in %"}, "[1]": {"tested_on": "501Mel-GP cells (Dabrafenib-resistant)", "assay": "Kinase inhibitor library screening, PrestoBlue cell viability, 1 or 10 μM, 72 h", "details": "10μΜ, in %"}}, "data": [{"smiles": "CS(=O)(=O)CCNCc1ccc(-c2ccc3ncnc(Nc4ccc(OCc5cccc(F)c5)c(Cl)c4)c3c2)o1.Cc1ccc(S(=O)(=O)O)cc1.Cc1ccc(S(=O)(=O)O)cc1", "note": "[Lapatinib Ditosylate (Tykerb)]", "values": [{"measurement": "cell viability, A375 Parental, 1μΜ", "setting": "A375 cells (parental)", "result": 102.6}]}, {"smiles": "CNC(=O)c1cc(Oc2ccc(NC(=O)Nc3ccc(Cl)c(C(F)(F)F)c3)cc2)ccn1", "note": "[Sorafenib (Nexavar)]", "values": [{"measurement": "cell viability (kinase inhibitor library screening)", "setting": "[1]", "result": 27.3}]}]}
